Drawing on patent publication US12542197B2, this text covers IC50 for one molecule.

The chains behind the UniProt entries cited, without tags or fusion partners.
UniProt P00519, whole entry: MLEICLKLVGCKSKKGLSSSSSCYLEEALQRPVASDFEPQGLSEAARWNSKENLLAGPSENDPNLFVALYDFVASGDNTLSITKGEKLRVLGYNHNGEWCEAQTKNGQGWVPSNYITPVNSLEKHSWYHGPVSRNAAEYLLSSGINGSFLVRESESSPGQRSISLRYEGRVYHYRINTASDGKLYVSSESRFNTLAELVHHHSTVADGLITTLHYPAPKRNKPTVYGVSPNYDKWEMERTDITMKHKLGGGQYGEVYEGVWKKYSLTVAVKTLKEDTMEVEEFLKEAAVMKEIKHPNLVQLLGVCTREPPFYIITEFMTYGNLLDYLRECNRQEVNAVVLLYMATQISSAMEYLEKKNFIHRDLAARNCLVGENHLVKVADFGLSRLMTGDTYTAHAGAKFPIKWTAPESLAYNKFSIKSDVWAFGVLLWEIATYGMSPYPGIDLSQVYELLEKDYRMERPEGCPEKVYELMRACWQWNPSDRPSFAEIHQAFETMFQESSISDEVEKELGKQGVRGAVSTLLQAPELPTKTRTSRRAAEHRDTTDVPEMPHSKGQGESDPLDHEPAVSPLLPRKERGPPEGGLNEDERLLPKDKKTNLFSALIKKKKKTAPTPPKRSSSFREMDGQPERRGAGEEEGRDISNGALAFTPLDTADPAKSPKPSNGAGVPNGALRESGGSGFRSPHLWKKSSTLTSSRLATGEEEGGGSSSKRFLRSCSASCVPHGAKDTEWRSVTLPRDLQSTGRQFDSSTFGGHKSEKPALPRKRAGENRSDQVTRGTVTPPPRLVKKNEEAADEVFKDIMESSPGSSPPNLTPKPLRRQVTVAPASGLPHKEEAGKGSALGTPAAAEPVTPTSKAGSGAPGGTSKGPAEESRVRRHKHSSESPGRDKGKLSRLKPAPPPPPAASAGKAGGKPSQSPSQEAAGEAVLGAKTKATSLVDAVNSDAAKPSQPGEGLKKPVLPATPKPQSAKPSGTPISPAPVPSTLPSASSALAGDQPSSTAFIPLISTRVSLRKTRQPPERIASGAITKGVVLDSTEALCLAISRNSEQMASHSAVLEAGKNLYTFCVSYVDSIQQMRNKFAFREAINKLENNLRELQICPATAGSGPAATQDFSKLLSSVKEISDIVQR

In the assay the target is protein ABL1 (Homo sapiens, UniProt P00519). The experiment in a line: Activity (binding force, IC50) against protein ABL1. To be noted: read-out: binding force, IC50 (50% inhibitory concentration); ligand for protein ABL1 (kinase), FIG. 12A.

Consider `COc1ccccc1Oc1ccc2[nH]nc(-c3nc4ccc(N5CCC(N6CCCCC6)CC5)cc4[nH]3)c2c1`, for which the IC50 came out at 1000 nM.
